# Results from ChEMBL document CHEMBL4840326, “Discovery of an M-Substituted N-Cyclopropylmethyl-7α-phenyl-6,14-endoethanotetrahydronorthebaine as a Selective, Potent, and Orally Active κ-Opioid Receptor Agonist with an Improved Central Nervous System Safety Profile” (2021).
# pEC50, pKi: −log10 of the molar value.
# Molecular target: Mu-type opioid receptor (Rattus norvegicus, UniProt P33535)
# Experiment: Displacement of [3H]DAMGO from rat mu opioid receptor expressed in CHO cell membrane measured after 30 mins by liquid scintillation counting method
# Conditions: not given
row,SMILES,pKi
1,COc1ccc2c3c1O[C@H]1[C@@]4(OC)CC[C@@]5(C[C@@H]4c4cccc(NCC(O)COc6cccc7[nH]c8ccccc8c67)c4)[C@@H](C2)N(CC2CC2)CC[C@]315 (stereo partly drawn),5.82
2,COc1ccc2c3c1O[C@H]1[C@@]4(OC)CC[C@@]5(C[C@@H]4c4cccc(NCc6ccc(OC(F)(F)F)cc6)c4)[C@@H](C2)N(CC2CC2)CC[C@]315,6.57
3,COc1ccc(C(=O)Nc2cccc([C@H]3C[C@@]45CC[C@]3(OC)[C@@H]3Oc6c(OC)ccc7c6[C@@]34CCN(CC3CC3)[C@@H]5C7)c2)cc1,7.28
4,COc1ccc2c3c1O[C@H]1[C@@]4(OC)CC[C@@]5(C[C@@H]4c4cccc(NCc6ccc(F)cc6)c4)[C@@H](C2)N(CC2CC2)CC[C@]315,7.46
5,COc1ccc2c3c1O[C@H]1[C@@]4(OC)CC[C@@]5(C[C@@H]4c4cccc(NCC6CC6)c4)[C@@H](C2)N(CC2CC2)CC[C@]315,6.30
6,COc1ccc(CNc2cccc([C@H]3C[C@@]45CC[C@]3(OC)[C@@H]3Oc6c(OC)ccc7c6[C@@]34CCN(CC3CC3)[C@@H]5C7)c2)cc1,5.73
7,COc1ccc2c3c1O[C@H]1[C@@]4(OC)CC[C@@]5(C[C@@H]4c4cccc(NCc6ccccc6)c4)[C@@H](C2)N(CC2CC2)CC[C@]315,< 5.30
8,COc1ccc2c3c1O[C@H]1[C@@]4(OC)CC[C@@]5(C[C@@H]4c4cccc(NCc6ccc([N+](=O)[O-])cc6)c4)[C@@H](C2)N(CC2CC2)CC[C@]315,7.32
9,COc1ccc2c3c1O[C@H]1[C@@]4(OC)CC[C@@]5(C[C@@H]4c4cccc(N)c4)[C@@H](C2)N(CC2CC2)CC[C@]315,7.16
10,COc1ccc2c3c1O[C@H]1[C@@]4(OC)CC[C@@]5(C[C@@H]4c4cccc(NC(=O)c6ccccc6)c4)[C@@H](C2)N(CC2CC2)CC[C@]315,6.43
11,COc1ccc2c3c1O[C@H]1[C@@]4(OC)CC[C@@]5(C[C@@H]4c4cccc(NCc6ccc(N)cc6)c4)[C@@H](C2)N(CC2CC2)CC[C@]315,7.52

# Molecular target: T1, Delta-type opioid receptor (Rattus norvegicus, UniProt P33533)
# Experiment: Displacement of [3H]DPDPE from rat delta opioid receptor expressed in CHO cell membrane measured after 30 mins by liquid scintillation counting method
# Conditions: not given
row,SMILES,pKi
1,COc1ccc2c3c1O[C@H]1[C@@]4(OC)CC[C@@]5(C[C@@H]4c4cccc(NCC(O)COc6cccc7[nH]c8ccccc8c67)c4)[C@@H](C2)N(CC2CC2)CC[C@]315 (stereo partly drawn),5.52
2,COc1ccc(C(=O)Nc2cccc([C@H]3C[C@@]45CC[C@]3(OC)[C@@H]3Oc6c(OC)ccc7c6[C@@]34CCN(CC3CC3)[C@@H]5C7)c2)cc1,5.24
3,COc1ccc2c3c1O[C@H]1[C@@]4(OC)CC[C@@]5(C[C@@H]4c4cccc(NCc6ccc(F)cc6)c4)[C@@H](C2)N(CC2CC2)CC[C@]315,6.35
4,COc1ccc2c3c1O[C@H]1[C@@]4(OC)CC[C@@]5(C[C@@H]4c4cccc(NCC6CC6)c4)[C@@H](C2)N(CC2CC2)CC[C@]315,6.28
5,COc1ccc(CNc2cccc([C@H]3C[C@@]45CC[C@]3(OC)[C@@H]3Oc6c(OC)ccc7c6[C@@]34CCN(CC3CC3)[C@@H]5C7)c2)cc1,6.36
6,COc1ccc2c3c1O[C@H]1[C@@]4(OC)CC[C@@]5(C[C@@H]4c4cccc(NCc6ccccc6)c4)[C@@H](C2)N(CC2CC2)CC[C@]315,< 5.00
7,COc1ccc2c3c1O[C@H]1[C@@]4(OC)CC[C@@]5(C[C@@H]4c4cccc(NCc6ccc([N+](=O)[O-])cc6)c4)[C@@H](C2)N(CC2CC2)CC[C@]315,5.73
8,COc1ccc2c3c1O[C@H]1[C@@]4(OC)CC[C@@]5(C[C@@H]4c4cccc(N)c4)[C@@H](C2)N(CC2CC2)CC[C@]315,7.07
9,COc1ccc2c3c1O[C@H]1[C@@]4(OC)CC[C@@]5(C[C@@H]4c4cccc(NC(=O)c6ccccc6)c4)[C@@H](C2)N(CC2CC2)CC[C@]315,6.35
10,COc1ccc2c3c1O[C@H]1[C@@]4(OC)CC[C@@]5(C[C@@H]4c4cccc(NCc6ccc(N)cc6)c4)[C@@H](C2)N(CC2CC2)CC[C@]315,6.18

# Molecular target: T2, Kappa-type opioid receptor (Homo sapiens, UniProt P41145)
# Experiment: Displacement of [3H]U69,593 from human kappa opioid receptor expressed in CHO cell membrane measured after 30 mins by liquid scintillation counting method
# Conditions: not given
row,SMILES,pKi
1,COc1ccc2c3c1O[C@H]1[C@@]4(OC)CC[C@@]5(C[C@@H]4c4cccc(NCC(O)COc6cccc7[nH]c8ccccc8c67)c4)[C@@H](C2)N(CC2CC2)CC[C@]315 (stereo partly drawn),7.03
2,COc1ccc2c3c1O[C@H]1[C@@]4(OC)CC[C@@]5(C[C@@H]4c4cccc(NCc6ccc(OC(F)(F)F)cc6)c4)[C@@H](C2)N(CC2CC2)CC[C@]315,6.37
3,COc1ccc(C(=O)Nc2cccc([C@H]3C[C@@]45CC[C@]3(OC)[C@@H]3Oc6c(OC)ccc7c6[C@@]34CCN(CC3CC3)[C@@H]5C7)c2)cc1,6.57
4,COc1ccc2c3c1O[C@H]1[C@@]4(OC)CC[C@@]5(C[C@@H]4c4cccc(NCc6ccc(F)cc6)c4)[C@@H](C2)N(CC2CC2)CC[C@]315,8.01
5,COc1ccc2c3c1O[C@H]1[C@@]4(OC)CC[C@@]5(C[C@@H]4c4cccc(NCC6CC6)c4)[C@@H](C2)N(CC2CC2)CC[C@]315,8.22
6,COc1ccc(CNc2cccc([C@H]3C[C@@]45CC[C@]3(OC)[C@@H]3Oc6c(OC)ccc7c6[C@@]34CCN(CC3CC3)[C@@H]5C7)c2)cc1,8.15
7,COc1ccc2c3c1O[C@H]1[C@@]4(OC)CC[C@@]5(C[C@@H]4c4cccc(NCc6ccccc6)c4)[C@@H](C2)N(CC2CC2)CC[C@]315,6.69
8,COc1ccc2c3c1O[C@H]1[C@@]4(OC)CC[C@@]5(C[C@@H]4c4cccc(NCc6ccc([N+](=O)[O-])cc6)c4)[C@@H](C2)N(CC2CC2)CC[C@]315,7.31
9,COc1ccc2c3c1O[C@H]1[C@@]4(OC)CC[C@@]5(C[C@@H]4c4cccc(N)c4)[C@@H](C2)N(CC2CC2)CC[C@]315,7.86
10,COc1ccc2c3c1O[C@H]1[C@@]4(OC)CC[C@@]5(C[C@@H]4c4cccc(NC(=O)c6ccccc6)c4)[C@@H](C2)N(CC2CC2)CC[C@]315,7.33
11,COc1ccc2c3c1O[C@H]1[C@@]4(OC)CC[C@@]5(C[C@@H]4c4cccc(NCc6ccc(N)cc6)c4)[C@@H](C2)N(CC2CC2)CC[C@]315,8.18

# Molecular target: T1, Delta-type opioid receptor
# Experiment: Agonist activity at rat delta opioid receptor expressed in CHO cell membrane incubated for 1 hr by [35S]GTPgammaS binding based liquid scintillation counting method
# Conditions: not given
row,SMILES,pEC50
1,COc1ccc2c3c1O[C@H]1[C@@]4(OC)CC[C@@]5(C[C@@H]4c4cccc(NCC6CC6)c4)[C@@H](C2)N(CC2CC2)CC[C@]315,6.07
2,COc1ccc(CNc2cccc([C@H]3C[C@@]45CC[C@]3(OC)[C@@H]3Oc6c(OC)ccc7c6[C@@]34CCN(CC3CC3)[C@@H]5C7)c2)cc1,6.09

# Molecular target: T2, Kappa-type opioid receptor
# Experiment: Agonist activity at human kappa opioid receptor expressed in CHO cell membrane incubated for 1 hr by [35S]GTPgammaS binding based liquid scintillation counting method
# Conditions: not given
row,SMILES,pEC50
1,COc1ccc2c3c1O[C@H]1[C@@]4(OC)CC[C@@]5(C[C@@H]4c4cccc(NCC6CC6)c4)[C@@H](C2)N(CC2CC2)CC[C@]315,7.22
2,COc1ccc(CNc2cccc([C@H]3C[C@@]45CC[C@]3(OC)[C@@H]3Oc6c(OC)ccc7c6[C@@]34CCN(CC3CC3)[C@@H]5C7)c2)cc1,8.37

# Test system: Mus musculus
# Experiment: Antinociceptive activity in ip dosed Kunming mouse measured after 3.5 to 4 hrs by hot plate test
# Conditions: time 3.5-4 hrs
row,SMILES,ED50
1,COc1ccc(CNc2cccc([C@H]3C[C@@]45CC[C@]3(OC)[C@@H]3Oc6c(OC)ccc7c6[C@@]34CCN(CC3CC3)[C@@H]5C7)c2)cc1,0.1 mg/kg

# Test system: Mus musculus
# Experiment: Antinociceptive activity in ip dosed Kunming mouse assessed as reduction in acetic acid induced writhing signs measured after 3.5 to 4 hrs by abdominal constriction test
# Conditions: time 3.5-4 hrs
row,SMILES,ED50
1,COc1ccc(CNc2cccc([C@H]3C[C@@]45CC[C@]3(OC)[C@@H]3Oc6c(OC)ccc7c6[C@@]34CCN(CC3CC3)[C@@H]5C7)c2)cc1,0.2 mg/kg
